# Measurements from US20120082677A1, “COMPOSITIONS FOR THE TREATMENT OF HCV AND HBV” (priority 2010, published 2012).
# Test: Experiment 7 (second): injection in white mice for about 15 days
# Format: in vivo
# Conditions: 5 per group, injected for about 15 days
# Protocol: Experimental animals: We classified 20 white mice in 4 groups every group has 5 mice. Every component of the mixture (antistreptolysin antibodies; antistreptokinase antibodies; and tranexamic acid) is injected separately in the 1st, 2nd and 3rd groups while the 4th group is injected with the mixture of the three components, for about 15 days for all group.
smiles,measurement,value
NC[C@H]1CC[C@H](C(=O)O)CC1 [tranexamic acid],side effects or toxic effects,No side effects or toxic effects were detected
